Results taken from PubChem BioAssay AID624172 (National Center for Advancing Translational Sciences (NCATS), 2012).
This is a selection; strong and weak results do not stand in their true shares. The source made the active and inactive calls. Calls come from the whole dose curve; as a rule, active = well fitted activation curve with a large enough effect; inconclusive = small, poorly fitted or top-dose-only effect; inactive = no such curve, though single readings can be large or run the other way.

By UniProt entry, the sequences of proteins in these tests, tags left out. Where a name states a change or a piece, a line headed by the entry shows the natural chain unless it says otherwise.
UniProt P43220, whole entry, stated change not applied: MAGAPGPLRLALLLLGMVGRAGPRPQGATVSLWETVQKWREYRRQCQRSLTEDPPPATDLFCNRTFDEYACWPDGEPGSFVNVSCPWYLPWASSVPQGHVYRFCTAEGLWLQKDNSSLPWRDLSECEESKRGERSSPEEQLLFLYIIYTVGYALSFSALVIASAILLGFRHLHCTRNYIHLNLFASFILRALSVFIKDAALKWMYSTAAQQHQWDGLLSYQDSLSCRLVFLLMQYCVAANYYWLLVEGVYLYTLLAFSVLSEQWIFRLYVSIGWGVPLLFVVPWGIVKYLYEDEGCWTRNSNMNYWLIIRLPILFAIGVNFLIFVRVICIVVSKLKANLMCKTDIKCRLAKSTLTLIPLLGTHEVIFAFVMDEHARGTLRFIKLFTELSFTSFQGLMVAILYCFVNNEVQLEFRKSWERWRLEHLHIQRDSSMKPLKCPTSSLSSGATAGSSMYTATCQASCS

Biological target: Glucagon-like peptide 1 receptor (Homo sapiens) (UniProt P43220)
Assay: qHTS of GLP-1 Receptor Agonists; note: % of control where 0% means no effect
Conditions: HEK293 GLP-1R CRE-luciferase, luminescence, 4-6 h, cells express a hypersensitive GLP-1R form
From the text: The overall goal of this project was to develop a novel assay for discovering small molecule ligands for class B1 G protein-coupled receptors (GPCRs). Very few agonists (or inverse agonists) with generally weak activity for this entire group of physiologically important receptors are known to date. To establish proof-of-principle that this critical bottleneck can be overcome with a suitable screening approach, our studies focused on the class B1 receptor for glucagon-like peptide-1 (GLP-1R), a potential therapeutic target for diabetes and neurodegenerative disease.
The assay was developed in a "mix and measure" format using a cell-based functional readout. Toward this goal, stably transfected HEK293 cell clones were established that co-express (i) a cAMP-responsive luciferase reporter gene, and (ii) GLP-1Rs that upon ligand interaction either stimulate (agonists) or inhibit (inverse agonists) luciferase activity. In different cell lines to be used for screening, expressed GLP-1Rs are specifically optimized for high sensitivity detection of either weak agonists (hypersensitive receptor) or inverse agonists (constitutively active receptor mutant). In addition, control cell lines were developed that express either the cAMP-responsive reporter gene without recombinant GLP-1Rs (enabling initial exclusion of GLP-1R independent effects of candidate probes), or the reporter gene together with wild type GLP-1Rs (for confirmation of probe activity at this receptor), or the reporter gene in combination with the constitutively active orphan receptor GPR119 (enabling initial exclusion of GLP-1R independent inhibitory effects of candidate inverse agonists).
To that end, this assay was optimized for 1536-well format and screened against the MLSMR.
NIH Molecular Libraries Probe Production Network [MLPCN]
NIH Chemical Genomics Center [NCGC]
PI Name: Martin Beinborn, Tufts Medical Center
In a white solid 1536-well plate, 6 uL of cells are dispensed in DMEM without phenol red, 10% Nu serum, and 1% pen-strep medium. The plates are then incubated for 12 hours at 37 deg C at 5% CO2 before 23 nL of compounds are added. After a 4-6 hr incubation at37 deg C and 5% CO2, 3 uL of detection reagent are added and after a 12 min incubation at RT, a luminescent read is obtained on the ViewLux.

| Compound | activation (at 45.6 µM (top of the series)) | activation (at 96 µM (top of the series)) |
| --- | --- | --- |
| CCC(=O)N(c1ccccc1)C1(COC)CCN(CCc2cccs2)CC1 | inactive: -3.35% | inactive: -0.655% |
| CCC(=O)N(c1ccccc1)C1(COC)CCN(CCn2nnn(CC)c2=O)CC1 | inactive: -1.6% | inactive: 4.73% |
| CN(CCCl)CCCl | inactive: 5.83% |  |
